Reference: ChEMBL document CHEMBL1124192, “Cyclopentenylcytosine. A carbocyclic nucleoside with antitumor and antiviral properties” (J Med Chem, 1988)

Assay: Ratio of minimum drug concentration to ID50 of the compound ([…] strain)
Format: ADME
Details: read-out: Therapeutic index

## NC(=O)c1ncn([C@@H]2O[C@H](CO)[C@@H](O)[C@H]2O)n1 [RIBAVIRIN]
  selectivity ratio: 1.1
